GIV Gai3 FP = inhibitors of GIV peptide binding to Galpha-i3, primary screen, biochemical, fluorescence polarization, FITC-GIV GBA peptide, rat Galphai3; 90 min; stronger effect = lower value; scaled: aluminum fluoride 0%, vehicle 100%; percent of control (FP), % (test concentration not listed); 0.42% of 210,000 active; AID 1224905, 2016;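 active = replicate mean at 85% of control or lower, very high polarization wells dropped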;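 also: wells of about 15 µL received 100 nL stock; the first replicate is given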
Numbers stand for hits; i = inactive; ! = a repeat was not active. Shown is part of a subset that was picked to be rich in hits.

SMILES	GIV Gai3 FP
COC(=O)c1c(C)sc(-c2c(-c3ccc4ccccc4c3)[nH]c3c2c(=O)n(C)c(=O)n3C)c1O	i
Cc1nc(-c2csc(S(=O)(=O)N3CCCC(C(=O)NCCN4CCCC4)C3)c2)no1 (stereo not given)	i
CN1C(=O)C2(CCN(C(=O)NC3CCCCC3)C2)c2ccccc21 (stereo not given)	i
COc1ccccc1/C=C1/SC(=O)N(CCN=C2NS(=O)(=O)c3ccccc32)C1=O	i
CN(C)C(=O)c1ccc2c(c1)nc(CN1CCN(C(=O)Nc3ccccc3)CC1)n2C	i
O=C1/C(=C/c2ccc(-c3cc(Cl)ccc3Cl)o2)C=C(c2ccccc2)N1c1cccc(Br)c1	i
Nc1ccc2nc(-c3ccccc3)c(-c3ccccc3)nc2c1	i
Nc1ccc2nc3c(=O)[nH]c(=O)[nH]c3nc2c1	17.5
O=c1[nH]c(=O)c2nc3c(ccc4nsnc43)nc2[nH]1	i
Cc1nn(CC(=O)NC(C)(C)C)c(C)c1S(=O)(=O)N1CCC(C(=O)N2CCc3ccccc3C2)CC1	i
Cc1cc2nc(Cc3cc4c(cc3Br)OCO4)c(=O)[nH]c2cc1C	i
c1ccc(Cc2nnc3sc(-c4c[nH]c5ccccc45)nn23)cc1	i
CCN(CC)c1ccc2cc(-c3nc(-c4ccccc4)no3)c(=O)oc2c1	i
CCN(CC)c1ccc2cc(-c3nc4ccccc4c(=O)[nH]3)c(=N)oc2c1	8.2
CCN(CC)c1ccc2ccc(=O)oc2c1	i
CCN(CC)c1ccc2cc(C(=O)Nc3ccc(C)cc3)c(=N)oc2c1	i
CCc1ccc(NC(=O)c2cc3ccccc3oc2=O)cc1	i
CCN(CC)c1ccc2cc(C(=O)Nc3ccccc3)c(=N)oc2c1	72.9
CCCCOc1ccc(-c2nc(/C=N/c3nc(CC(=O)OCC)cs3)c(O)o2)cc1	i
O=C1CCCN1c1ccccc1	i
CC(=O)Nc1cc(C)ccc1C	i
COc1ccc(C(=O)/C=C/Nc2ccccc2C#N)cc1	i
N#CC1=C(N)C(C#N)(C#N)C(c2ccccc2Cl)C2CN(Cc3ccccc3)CC=C12 (stereo not given)	i
N#CC1=C(N)C(C#N)(C#N)C(c2ccco2)C2CN(Cc3ccccc3)CC=C12 (stereo not given)	-42.9
N#CC1=C(N)C(C#N)(C#N)C(c2cccc(Br)c2)C2CN(Cc3ccccc3)CC=C12 (stereo not given)	i
SMILES	GIV Gai3 FP
O=C1CC(C(=O)NCc2ccc(F)cc2)C2=C(CCCC2=O)N1 (stereo not given)	i
Clc1ccc(C2=CC(c3cccs3)n3c(nc4ccccc43)N2)cc1 (stereo not given)	i
C1=C(c2ccc3c(c2)OCO3)Nc2ncnn2C1c1cccs1 (stereo not given)	-22.3
CC(=O)C1=C(C)Nc2ncnn2C1c1ccc2c(c1)OCO2 (stereo not given)	i
CN(C)c1ccc(C2C=C(c3ccccc3)Nc3ncnn32)cc1 (stereo not given)	i
C1=C(c2ccccc2)Nc2ncnn2C1c1cccs1 (stereo not given)	-24.0
C1=C(c2ccccc2)Nc2ncnn2C1c1ccc2c(c1)OCO2 (stereo not given)	i
CCc1ccc(CNc2nc3nc(CN4CCCC4)cc(=O)n3[nH]2)cc1	i
Cc1ccc(N/N=C2/C(=O)C3(C)CCC2C3(C)C)cc1 (stereo not given)	i
CCCN(CCC)C(=O)c1sc2nc(C)nc(N3CCCCC3)c2c1C	i
COc1ccc(N(/N=C2\Sc3ccccc3C2=O)C(C)=O)cc1	i
COc1ccc(N(/C=C2\Sc3ccccc3C2=O)C(=O)c2ccco2)cc1	i
COc1ccc(N(C=O)/C=C2\Sc3ccccc3C2=O)cc1	-14.8
CCSc1nnc2c(n1)OC(c1ccc(N(CC)CC)cc1OC)N(C(C)=O)c1ccccc1-2 (stereo not given)	i
CCOc1ccccc1NC(=O)C1c2ccccc2Oc2ccccc21	i
O=C(Nc1nc2n(n1)C(c1ccc(Cl)cc1)C=C(c1ccccc1)N2)c1ccco1 (stereo not given)	-44.3
COc1ccc(C2C=C(c3ccc(Cl)cc3)Nc3nc(-c4ccc(Cl)cc4)nn32)cc1 (stereo not given)	-8.2!
O=C(Nc1nc2n(n1)C(c1ccc(F)cc1)C=C(c1ccccc1)N2)c1ccco1 (stereo not given)	i
Cc1ccc(C2=CC(c3ccc(Cl)cc3)n3nc(-c4ccc(C)cc4)nc3N2)cc1 (stereo not given)	i
O=C(Nc1nc2n(n1)C(c1ccccc1)C=C(c1ccccc1)N2)c1ccccc1 (stereo not given)	i
COc1ccc(C(=O)Nc2nc3n(n2)C(c2ccc(Cl)cc2)C=C(c2ccccc2)N3)cc1OC (stereo not given)	40.5
COc1ccccc1C1C=C(c2ccc(Cl)cc2)Nc2nc(-c3ccc(Cl)cc3)nn21 (stereo not given)	i
O=C(/C=C/c1ccccc1)Nc1nc2n(n1)C(c1ccc(Cl)cc1)C=C(c1ccccc1)N2 (stereo not given)	i
COc1ccc(C2C=C(c3ccccc3)Nc3nc(NC(=O)c4ccc(C)cc4)nn32)cc1 (stereo not given)	i
COc1ccccc1OCC(=O)NCC(c1ccccc1)c1c[nH]c2ccccc12 (stereo not given)	i
SMILES	GIV Gai3 FP
CCOC(=O)c1[nH]c(C)c(CN(Cc2ccc(OC)cc2)C(=O)Nc2ccc(OC)cc2OC)c1C	i
O=C(CCN1CCOCC1)Nc1cc(C(=O)Nc2ccc3c(c2)OCCO3)ccc1N1CC2CC(C1)c1cccc(=O)n1C2 (stereo not given)	i
COc1ccc(NC(=O)CN2N=C(c3ccccc3)c3ccccc3S2(=O)=O)cc1	i
N#C/C(=C\c1ccc(-c2ccccc2C(=O)O)o1)c1nc2ccccc2[nH]1	i
N#C/C(=C\c1ccc(-c2ccc(F)cc2F)o1)c1nc2ccccc2[nH]1	-6.1
N#C/C(=C\c1ccc(Cl)cc1)c1nc2ccccc2[nH]1	i
CCCN1CCN(c2nnc(-n3cccc3CN3CCN(c4ccccn4)CC3)s2)CC1	i
CCN(C(=O)/C=C/c1cc(OC)c(OC)c(OC)c1)C1CCCCC1	i
COc1cc(/C=C/C(=O)/C=C/c2ccc(N(C)C)cc2)cc(OC)c1OC	-63.7
CCCN(CCC)C(=O)/C=C/c1cc(OC)c(OC)c(OC)c1	i
COc1ccccc1CNCC(=O)Nc1cc(C)on1	i
O=C1CC(=O)N(Cc2cccs2)C(=O)N1	i
O=C1C2C3c4ccccc4C(c4ccccc43)C2C(=O)N1Cc1ccco1 (stereo not given)	i
O=C1CC(=O)N(Cc2ccco2)C(=O)N1	58.5
Cn1c(=O)n(CCN2CCOCC2)c(=O)c2c1nc1n2CCCN1C1CCCCC1	i
CCc1ccc(N2CC(O)(c3ccc(OC)cc3)[N+]3=C2CCCC3)cc1 (stereo not given)	i
CCc1ccc2c(c1)[C@H]1OCC[C@H]1C(c1cc(I)c(OC)c(OC)c1)N2 (stereo not given in full)	i
O=c1oc2ccccc2cc1Cl	i
O=C1/C(=C\c2ccc(Br)o2)CC/C1=C/c1ccc(Br)o1	i
O=C1/C(=C/c2cc3ccccc3o2)CC/C1=C\c1cc2ccccc2o1	-5.9
Cc1c(C#N)c2nc3ccccc3n2c(=O)/c1=C\Nc1cccc(NC(=O)c2ccccc2)c1	-67.4
CCc1ccc(-n2[nH]c(=O)c(/C=c3/c(C)c(C#N)c4nc5ccccc5n4c3=O)c2O)cc1	i
Cc1c(C#N)c2nc3ccccc3n2c(=O)/c1=C\Nn1cnnc1	i
